Here are results for 1 molecule from paper PMC13064811, “The Role of Disulfide Bonds in the GluN1 Subunit in the Early Trafficking and Functional Properties of GluN1/GluN2 and GluN1/GluN3 NMDA Receptors” (The Journal of Neuroscience, 2026).

Protein sequences, listed by entry. Tags and fused reporters are not part of them. Lines headed by an entry give the natural chain unless they say otherwise; changes in a name come on top. Residues count along the entry.
UniProt Q00960, 27-1482: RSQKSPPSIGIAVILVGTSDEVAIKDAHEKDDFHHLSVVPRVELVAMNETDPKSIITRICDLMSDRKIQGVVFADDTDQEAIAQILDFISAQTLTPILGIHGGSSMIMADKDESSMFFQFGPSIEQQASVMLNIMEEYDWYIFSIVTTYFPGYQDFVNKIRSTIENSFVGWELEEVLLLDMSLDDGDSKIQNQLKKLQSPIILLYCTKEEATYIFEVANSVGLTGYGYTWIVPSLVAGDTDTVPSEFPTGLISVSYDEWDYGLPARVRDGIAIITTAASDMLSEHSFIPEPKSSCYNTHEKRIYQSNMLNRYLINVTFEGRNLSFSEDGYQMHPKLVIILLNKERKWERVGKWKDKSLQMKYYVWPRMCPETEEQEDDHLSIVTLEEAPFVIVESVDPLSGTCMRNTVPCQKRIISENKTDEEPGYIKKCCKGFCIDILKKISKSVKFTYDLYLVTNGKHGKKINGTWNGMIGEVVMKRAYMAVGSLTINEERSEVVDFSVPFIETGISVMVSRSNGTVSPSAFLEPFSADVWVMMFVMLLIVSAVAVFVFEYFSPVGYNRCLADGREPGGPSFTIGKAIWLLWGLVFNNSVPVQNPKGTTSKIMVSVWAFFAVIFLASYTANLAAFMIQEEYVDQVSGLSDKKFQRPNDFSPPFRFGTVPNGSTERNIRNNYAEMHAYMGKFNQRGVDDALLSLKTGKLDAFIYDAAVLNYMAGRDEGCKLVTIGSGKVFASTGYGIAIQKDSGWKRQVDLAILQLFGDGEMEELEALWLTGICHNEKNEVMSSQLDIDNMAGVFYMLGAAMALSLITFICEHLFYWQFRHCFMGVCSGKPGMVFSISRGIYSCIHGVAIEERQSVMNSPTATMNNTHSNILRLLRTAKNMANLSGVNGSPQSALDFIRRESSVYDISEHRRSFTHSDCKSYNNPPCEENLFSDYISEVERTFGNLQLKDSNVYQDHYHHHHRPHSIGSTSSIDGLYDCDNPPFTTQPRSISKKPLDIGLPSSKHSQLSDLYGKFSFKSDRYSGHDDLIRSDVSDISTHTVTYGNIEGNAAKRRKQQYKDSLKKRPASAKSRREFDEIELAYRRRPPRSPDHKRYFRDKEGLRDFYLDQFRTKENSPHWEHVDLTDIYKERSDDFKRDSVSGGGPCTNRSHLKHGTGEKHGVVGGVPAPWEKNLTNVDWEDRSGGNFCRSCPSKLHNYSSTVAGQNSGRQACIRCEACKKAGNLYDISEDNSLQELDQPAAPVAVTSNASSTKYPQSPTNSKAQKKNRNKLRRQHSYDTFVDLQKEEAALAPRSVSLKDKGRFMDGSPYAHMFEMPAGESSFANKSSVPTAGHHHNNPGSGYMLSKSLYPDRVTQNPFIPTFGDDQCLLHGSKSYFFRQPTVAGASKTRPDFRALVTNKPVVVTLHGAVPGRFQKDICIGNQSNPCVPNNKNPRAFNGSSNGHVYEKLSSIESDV
UniProt Q00959, 23-1464: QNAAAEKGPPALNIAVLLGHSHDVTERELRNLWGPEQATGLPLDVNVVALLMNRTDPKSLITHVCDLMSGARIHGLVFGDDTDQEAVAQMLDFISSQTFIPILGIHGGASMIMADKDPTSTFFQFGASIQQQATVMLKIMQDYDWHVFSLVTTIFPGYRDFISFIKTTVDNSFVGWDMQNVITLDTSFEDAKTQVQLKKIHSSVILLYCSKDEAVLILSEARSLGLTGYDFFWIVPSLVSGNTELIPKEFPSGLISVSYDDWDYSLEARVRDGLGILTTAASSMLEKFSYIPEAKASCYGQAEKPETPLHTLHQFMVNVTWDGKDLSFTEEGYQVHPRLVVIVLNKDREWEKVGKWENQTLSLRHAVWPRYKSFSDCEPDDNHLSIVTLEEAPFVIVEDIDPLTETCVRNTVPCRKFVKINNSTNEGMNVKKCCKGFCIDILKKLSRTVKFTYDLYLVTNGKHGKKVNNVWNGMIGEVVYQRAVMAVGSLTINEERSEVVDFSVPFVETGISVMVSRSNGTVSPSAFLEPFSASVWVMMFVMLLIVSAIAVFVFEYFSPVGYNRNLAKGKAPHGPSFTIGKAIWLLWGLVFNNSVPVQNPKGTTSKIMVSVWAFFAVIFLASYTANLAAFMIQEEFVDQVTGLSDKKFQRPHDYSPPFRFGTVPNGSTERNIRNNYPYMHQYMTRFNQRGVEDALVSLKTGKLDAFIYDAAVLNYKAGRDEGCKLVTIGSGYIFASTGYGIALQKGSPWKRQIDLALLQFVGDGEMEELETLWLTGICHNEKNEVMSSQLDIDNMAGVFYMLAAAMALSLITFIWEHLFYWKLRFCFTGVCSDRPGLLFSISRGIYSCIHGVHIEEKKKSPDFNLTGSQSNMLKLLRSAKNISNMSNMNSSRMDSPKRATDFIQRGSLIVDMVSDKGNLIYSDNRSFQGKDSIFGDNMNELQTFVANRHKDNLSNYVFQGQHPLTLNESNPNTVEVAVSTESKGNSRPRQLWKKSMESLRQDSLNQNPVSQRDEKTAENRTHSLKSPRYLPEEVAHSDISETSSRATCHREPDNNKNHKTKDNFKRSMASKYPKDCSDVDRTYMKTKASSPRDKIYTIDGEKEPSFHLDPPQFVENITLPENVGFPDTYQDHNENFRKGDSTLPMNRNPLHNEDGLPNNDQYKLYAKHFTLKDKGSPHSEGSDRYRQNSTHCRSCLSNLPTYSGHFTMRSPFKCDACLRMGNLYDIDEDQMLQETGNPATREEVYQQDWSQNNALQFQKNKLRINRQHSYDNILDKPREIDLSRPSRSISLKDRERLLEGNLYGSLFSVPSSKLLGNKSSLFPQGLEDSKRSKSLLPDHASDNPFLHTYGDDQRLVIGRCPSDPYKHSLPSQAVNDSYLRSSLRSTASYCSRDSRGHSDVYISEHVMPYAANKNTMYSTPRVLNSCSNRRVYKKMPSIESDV

Molecules are shown by their SMILES.

Targets include YFP-GluN1-1a/GluN2B (Rattus norvegicus, UniProt P35439+Q00960); YFP-GluN1-1a/GluN2A (Rattus norvegicus, UniProt P35439+Q00959); GluN1-4a/GluN2B (Rattus norvegicus, UniProt P35439+Q00960); GluN1-4a/GluN2A (Rattus norvegicus, UniProt P35439+Q00959).
Assay [1] deals with GluN1-4a-C744S-C798S/GluN2A (Rattus norvegicus, UniProt P35439+Q00959, C744S/C798S).
Assay [2] addresses YFP-GluN1-4a-C436S-C455S/GluN2A (Rattus norvegicus, UniProt P35439+Q00959, C436S/C455S).
Assay [3] concerns the target GluN1-4a-C79S-C308S/GluN2B (Rattus norvegicus, UniProt P35439+Q00960, C308S/C79S).
Assay [4] deals with YFP-GluN1-1a-C420S-C454S/GluN2B (Rattus norvegicus, UniProt P35439+Q00960, C420S/C454S).
In assay [5] the target is GluN1-4a-C436S-C455S/GluN2A (Rattus norvegicus, UniProt P35439+Q00959, C436S/C455S).
Assay [6] addresses YFP-GluN1-1a-C79S-C308S/GluN2A (Rattus norvegicus, UniProt P35439+Q00959, C308S/C79S).
Assay [7] deals with GluN1-4a-C744S-C798S/GluN2B (Rattus norvegicus, UniProt P35439+Q00960, C744S/C798S).
Assay [8] concerns the target GluN1-4a-C79S-C308S/GluN2A (Rattus norvegicus, UniProt P35439+Q00959, C308S/C79S).
Assay [9] addresses GluN1-4a-C420S-C454S/GluN2B (Rattus norvegicus, UniProt P35439+Q00960, C420S/C454S).
Assay [10] deals with GluN1-4a-C420S-C454S/GluN2A (Rattus norvegicus, UniProt P35439+Q00959, C420S/C454S).
Assay [11] concerns the target YFP-GluN1-1a-C420S-C454S/GluN2A (Rattus norvegicus, UniProt P35439+Q00959, C420S/C454S).
Assay [12] concerns the target YFP-GluN1-1a-C79S-C308S/GluN2B (Rattus norvegicus, UniProt P35439+Q00960, C308S/C79S).
For assay [13], the target named is GluN1-4a-C436S-C455S/GluN2B (Rattus norvegicus, UniProt P35439+Q00960, C436S/C455S).
Assay [14] has as its target YFP-GluN1-1a-C744S-C798S/GluN2B (Rattus norvegicus, UniProt P35439+Q00960, C744S/C798S).
The target in assay [15] is YFP-GluN1-4a-C436S-C455S/GluN2B (Rattus norvegicus, UniProt P35439+Q00960, C436S/C455S).
The target of assay [16] is YFP-GluN1-1a-C744S-C798S/GluN2A (Rattus norvegicus, UniProt P35439+Q00959, C744S/C798S).

Regarding `NCC(=O)O` [glycine], the “h (Hill coefficient), glycine” value in assay [1] turned out to be 1.10 ± 0.09; in [2], 1.29 ± 0.04; in assay [3], 1.32 ± 0.04; in assay [4] it was 1.13 ± 0.08; on YFP-GluN1-1a/GluN2B, 1.05 ± 0.03; in assay [5] it was 1.30 ± 0.05. Besides, the “h (Hill coefficient), glycine” value stood at 1.33 ± 0.06 in [6]; 0.86 ± 0.02 in [7]; 1.58 ± 0.10 in assay [8]; 1.18 ± 0.09 in assay [9]; 1.23 ± 0.06 in assay [10]; 1.31 ± 0.08 at YFP-GluN1-1a/GluN2A. Moreover, the “h (Hill coefficient), glycine” value in assay [11] was determined as 1.57 ± 0.10; in assay [12] it was 1.21 ± 0.09; in assay [13], 1.20 ± 0.07; in assay [14], 0.98 ± 0.06; in assay [15], 1.12 ± 0.04; on GluN1-4a/GluN2B, 0.95 ± 0.05. Besides, the “h (Hill coefficient), glycine” value is 1.24 ± 0.07 in [16] and 1.37 ± 0.03 at GluN1-4a/GluN2A.
